Sequences of proteins named here, by UniProt entry; tags and fusion partners are left off. A change or cut given only in a name is not applied to a line headed by its entry.
UniProt P41145: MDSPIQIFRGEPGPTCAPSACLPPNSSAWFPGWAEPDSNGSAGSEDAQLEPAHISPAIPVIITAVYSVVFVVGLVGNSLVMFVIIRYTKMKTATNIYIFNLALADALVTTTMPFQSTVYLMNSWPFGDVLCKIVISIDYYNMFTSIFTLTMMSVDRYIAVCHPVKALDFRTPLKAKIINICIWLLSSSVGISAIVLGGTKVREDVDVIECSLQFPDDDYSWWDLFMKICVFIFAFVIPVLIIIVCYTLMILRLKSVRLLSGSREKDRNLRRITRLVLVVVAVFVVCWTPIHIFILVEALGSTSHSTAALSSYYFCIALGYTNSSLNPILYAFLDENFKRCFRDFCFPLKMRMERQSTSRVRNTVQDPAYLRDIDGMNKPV

The target of the assay is κ opioid receptor (Homo sapiens, UniProt P41145). The assay is described as follows: biochemical.
With `CCCCN(CCCC)CCOC/C=C/c1ccccc1` [Compound 17, 2-(Cinnamyloxy)-N,N-dibutylethanamine], the inhibition constant (Ki) (in general, the dissociation constant of the complex between target and ligand, obtained from inhibition or displacement) was > 10 µM. For the molecule `CCCCN(CCCC)CCOCCCc1ccccc1` [Compound 18, N,N-dibutyl-2-(3-phenylpropoxy)ethanamine], the inhibition constant Ki is > 10 µM. Consider `CN(CCOC/C=C/c1ccccc1)Cc1ccccc1` [Compound 33, N-benzyl-2-(cinnamyloxy)-N-methylethanamine], for which the Ki is > 10 µM.

Regarding `CN(CCOCCCc1ccccc1)Cc1ccccc1` [Compound 34, N-benzyl-N-methyl-2-(3-phenylpropoxy)ethanamine], the Ki is > 10 µM. With `CN(CCOC/C=C/c1ccccc1)CCc1ccccc1` [Compound 35, 2-(Cinnamyloxy)-N-methyl-N-phenethylethanamine], the inhibitory constant (Ki) was > 10 µM. To `CN(CCOCCCc1ccccc1)CCc1ccccc1` [Compound 36, N-methyl-N-phenethyl-2-(3-phenylpropoxy)ethanamine] belongs > 10 µM; to `CN(CCCc1ccccc1)CCOC/C=C/c1ccccc1` [Compound 37, 2-(Cinnamyloxy)-N-methyl-N-phenylpropylethanamine], > 10 µM; to `CN(CCCc1ccccc1)CCOCCCc1ccccc1` [Compound 38, N-methyl-N-phenylpropyl-2-(3-phenylpropoxy)ethanamine], > 10 µM.
